“And” between values parts separate entries of the source, which are not always exact repeats. Equal entries are not always repeated. The entries are a selection whose mix differs from that of the whole data set. Some compounds were tested as several samples or in several runs, with calls that do not always agree. The source made the active and inactive calls. The calls were made as follows: active = hit-call score of the fitted dose curve at least 0.9, where 1 is the maximum; inactive = score below 0.9.
assay: ATG_RORE_CIS: Attagene CIS-FACTORIAL HepG2 Assay for human RAR-related Orphan Receptor Element (RORE) (AID 2282959); details: HepG2 Attagene cis-factorial RORE reporter, mRNA; actives raise or lower the signal

| Structure (SMILES) | outcome | AC50 |
| --- | --- | --- |
| O=S(=O)(c1ccc(O)cc1)c1ccc(O)cc1 | inactive | – |
| O=C(Oc1ccc(Br)cc1)N1CCN2CCC1CC2 | inactive | – |
| CN(C)[C@@H]1C(=O)C(C(N)=O)=C(O)[C@@]2(O)C(=O)C3=C(O)c4c(O)cccc4[C@@](C)(O)[C@H]3C[C@@H]12 | inactive | – |
| CNC(=O)Oc1cccc2c1OC(C)(C)C2 | inactive | – |
| CCOP(=S)(OCC)SCSC(C)(C)C | inactive | – |
| O=C(O)COc1ccc(Cl)cc1Cl | inactive | – |
| CN(C)c1ccccc1 | inactive | – |
| CCCCOCN(C(=O)CCl)c1c(CC)cccc1CC | inactive | – |
| CCOP(=S)(OCC)SCS(=O)(=O)CC | inactive | – |
| O=C(O)CCCc1ccc(N(CCCl)CCCl)cc1 | inactive | – |
| OC(c1ccc(Cl)cc1)(c1ccc(Cl)cc1)C(Cl)(Cl)Cl | inactive | – |
| ClC1(Cl)C2(Cl)C3(Cl)C4(Cl)C(Cl)(Cl)C5(Cl)C3(Cl)C1(Cl)C5(Cl)C24Cl (stereo not drawn) | inactive | – |
| CCOP(=O)(O)C(N)=O | inactive | – |
| CC(C)O.CC(C)O.OCCN(CCO)CCO.OCCN(CCO)CCO.[Ti] | inactive | – |
| Cc1ccc(OP(=O)(Oc2ccc(C)cc2)Oc2ccc(C)cc2)cc1 (tested in a mixture with another compound) | inactive | – |
| O=C1C2CC=CCC2C(=O)N1SC(Cl)(Cl)Cl (stereo not drawn) | inactive | – |

| Structure (SMILES) | outcome | AC50 |
| --- | --- | --- |
| Oc1ccccc1Cl | inactive | – |
| CCOC(=O)/C=C(C)/C=C/C[C@@H](C)CCCC(C)C | inactive | – |
| Oc1ccc(Cl)cc1Cc1ccccc1 | inactive | active: 4.06 µM and active: 14.8 µM |
| ClC(Cl)=C(c1ccc(Cl)cc1)c1ccccc1Cl | inactive | – |
| C=CC(=O)NCNC(=O)C=C | inactive | – |
| COC(=O)c1ccccc1S(=O)(=O)NC(=O)N(C)c1nc(C)nc(OC)n1 | inactive | – |
| O=P(Oc1ccccc1)(Oc1ccccc1)Oc1ccccc1 | inactive | – |
| CNC(=O)Oc1cccc2c1OC(C)(C)O2 | inactive | – |
| C#CCN1C(=O)COc2cc(F)c(N3C(=O)C4=C(CCCC4)C3=O)cc21 | inactive | – |
| CNC(=O)/C=C(\C)OP(=O)(OC)OC | inactive | – |
| CCCCCCCCOC(=O)c1ccc(C(=O)OCCCCCCCC)c(C(=O)OCCCCCCCC)c1 | inactive | – |
| C=CC(=O)OCCCCOC(=O)C=C | – | active: 25.8 µM |
| COc1nn(C(=O)NS(=O)(=O)c2ccccc2OC(F)(F)F)c(=O)n1C | inactive | – |
| CCOP(=S)(OCC)SCSCC | – | active: 180 µM |
| CC(C)C(=O)Cl | inactive | – |
| Cc1c(F)c(F)c(COC(=O)C2C(/C=C(\Cl)C(F)(F)F)C2(C)C)c(F)c1F (stereo not drawn) | inactive | – |
